ChEMBL document CHEMBL2010803, “Novel NSAID 1-acyl-4-cycloalkyl/arylsemicarbazides and 1-acyl-5-benzyloxy/hydroxy carbamoylcarbazides as potential anticancer agents and antioxidants” (Eur J Med Chem, 2012)

Test system: Glycine max
Assay: Inhibition of soybean LOX assessed as conversion of sodium linoleate to 13- hydroperoxylinoleic acid at 100 uM
Method in brief: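 Compound in DMSO incubated at room temperature with sodium linoleate (0.1 ml) and soybean LOX solution (0.2 ml) in saline. Conversion to 13-hydroperoxylinoleic acid recorded at 234 nm and compared with a standard inhibitor. At least triplicate.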

Which inhibition does the source give for CC(Cc1ccc(O)c(O)c1)C(C)Cc1ccc(O)c(O)c1 (stereo unspecified) here?
Its inhibition is 84%.
